Assay results taken from patent US9958439B2, “Carbohydrate detection” (RICHTER LIFE SCIENCE DEVELOPMENT AB, priority 2012, dated 2018).

System: biofilm (curli, cellulose) of S. enteritidis wt strain 3934 and isogenic mutants
Settings: present in the growth medium throughout the experiment

## hepta Hydrogen Thiophene Acetic Acid [h-HTAA]
  bactericidal property of the probe in growth medium: non-bactericidal
